Protein sequences, listed by entry. Tags and fused reporters are not part of them. Lines headed by an entry give the natural chain unless they say otherwise; changes in a name come on top.
UniProt Q14416: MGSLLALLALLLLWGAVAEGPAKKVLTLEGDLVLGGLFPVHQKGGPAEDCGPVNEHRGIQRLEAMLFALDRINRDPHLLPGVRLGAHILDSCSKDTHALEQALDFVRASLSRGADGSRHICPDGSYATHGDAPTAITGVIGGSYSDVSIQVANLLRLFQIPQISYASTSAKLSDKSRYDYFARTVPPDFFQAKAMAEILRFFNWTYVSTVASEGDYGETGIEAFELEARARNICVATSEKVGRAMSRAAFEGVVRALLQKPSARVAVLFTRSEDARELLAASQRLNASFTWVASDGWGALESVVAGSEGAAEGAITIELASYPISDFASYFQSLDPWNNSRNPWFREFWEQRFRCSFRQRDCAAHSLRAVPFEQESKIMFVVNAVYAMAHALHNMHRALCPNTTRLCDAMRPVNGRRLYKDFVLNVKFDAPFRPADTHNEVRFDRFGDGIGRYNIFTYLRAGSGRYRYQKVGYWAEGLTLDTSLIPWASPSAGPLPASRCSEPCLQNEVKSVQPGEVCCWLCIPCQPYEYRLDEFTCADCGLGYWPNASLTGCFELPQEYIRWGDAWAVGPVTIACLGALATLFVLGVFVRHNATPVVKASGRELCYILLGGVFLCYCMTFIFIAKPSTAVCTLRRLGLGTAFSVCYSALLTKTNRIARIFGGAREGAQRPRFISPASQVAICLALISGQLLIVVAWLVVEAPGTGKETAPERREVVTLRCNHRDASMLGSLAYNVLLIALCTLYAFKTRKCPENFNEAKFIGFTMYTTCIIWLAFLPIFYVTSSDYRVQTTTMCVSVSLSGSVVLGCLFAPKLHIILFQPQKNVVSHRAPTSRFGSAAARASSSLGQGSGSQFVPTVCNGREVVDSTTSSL

In ChEMBL document CHEMBL4308859, “Discovery of Novel Central Nervous System Penetrant Metabotropic Glutamate Receptor Subtype 2 (mGlu2) Negative Allosteric Modulators (NAMs) Based on Functionalized Pyrazolo[1,5- a]pyrimidine-5-carboxamide and Thieno[3,2- b]pyridine-5-carboxamide Cores” (J Med Chem, 2018):

Target: Metabotropic glutamate receptor 2 (Homo sapiens, UniProt Q14416)
Test: Negative allosteric modulation of mGlu2R (unknown origin)

IC50: 0.045 µM
Structure (SMILES): [11CH3]Oc1ccc(-c2cc(C(N)=O)nc3cc(CN4C(=O)CCC4=O)ccc23)c(F)c1
